# Reference: patent EP4014973B1, “INHALED LIQUID FOR THE TREATMENT OF RESPIRATORY INFECTIONS IN HUMANS CAUSED BY PATHOGENS RESISTANT TO ANTIBIOTICS” (Conick Biotech LLC, priority 2020, dated 2022)
# System: humans
# Experiment: Clinical pilot study of side effects after inhalation
# Details: 80 humans; blood samples before the test, on the 4th and 8th day
smiles,measurement,value
"C=CCc1ccc(O)c(OC)c1.CCN(CC)CC(=O)Nc1c(C)cccc1C [Novel Compound, N-[N'-(carboxymethylenyl-2,6-dimethyl-aniline)-N,N-diethylammonium]-[2'-methoxy-4'-(2'-propenyl)]-phenolate.]",kidney functions (urine and blood parameters),did not have any negative effects on kidney
